In patent US8663646B2, “P53 peptide vaccine” (priority 2007, dated 2014):
pIC50: −log10 of the molar value.

How the values were obtained:
HLA-A*0201 = HLA-A*0201 (Homo sapiens, UniProt P04439, D140Y/D185E/D98H/E176V/E277Q/G131W/G231S/I119V/I121R/I166T/I218V/L300P/L318F/N151K/N90K/P208A/P217A/Q86G/Q94H/R138H/R169H/T345S); details: binding capacity previously determined, cited from earlier work
HLA-A*0301 = molecular target: T1, HLA-A*0301 (Homo sapiens, UniProt P04439); assay: Competition based cellular binding assay, HLA-A*0301 (B-cell line EKR); details: for Peptide Binding Affinity: HLA-A*0301, IC50 category
T1 construct: B-cell lines used are: CAA (A*0101), EKR (A*0301), BVR (A*1101), VIJF (A*2401); endogenous in cells; host or cells: B-cell line EKR

HLA-A*1101 = molecular target: T2, HLA-A*1101 (Homo sapiens, UniProt P04439, A114D/D185E/E176A/F33Y/L180Q/S129P/T187R); assay: Competition based cellular binding assay, HLA-A*1101 (B-cell line BVR); details: for Peptide Binding Affinity: HLA-A*1101, IC50 category
T2 construct: B-cell lines used are: CAA (A*0101), EKR (A*0301), BVR (A*1101), VIJF (A*2401); endogenous in cells; host or cells: B-cell line BVR

Row | Molecule | Peptide Binding Affinity (HLA-A*0201) | Peptide Binding Affinity (HLA-A*0301) | Peptide Binding Affinity (HLA-A*1101) | other results
1 | ALYVDSLFFL [PRA 300-309] | high | – | – | –
2 | CC[C@H](C)[C@H](NC(=O)[C@H](CC(C)C)NC(=O)[C@H](Cc1c[nH]cn1)NC(=O)[C@H](CCC(N)=O)NC(=O)[C@@H]1CCCN1C(=O)[C@@H]1CCCN1C(=O)[C@H](C)NC(=O)[C@H](CC(C)C)NC(=O)CN)C(=O)N[C@@H](CCCNC(=N)N)C(=O)N[C@H](C(=O)O)C(C)C [p53 187-197] | high | – | – | –
3 | CC(C)C[C@H](NC(=O)[C@H](C)NC(=O)[C@@H]1CCCN1C(=O)[C@H](CO)NC(=O)[C@H](Cc1ccc(O)cc1)NC(=O)[C@@H](NC(=O)[C@@H](N)CS)[C@@H](C)O)C(=O)N[C@@H](CC(N)=O)C(=O)N[C@@H](CCCCN)C(=O)O [p53 124-132] | – | high | high | –
4 | CC[C@H](C)[C@H](NC(=O)[C@H](C)NC(=O)[C@H](CCSC)NC(=O)[C@H](C)NC(=O)[C@H](CCCNC(=N)N)NC(=O)[C@@H](NC(=O)[C@@H](N)CCCNC(=N)N)C(C)C)C(=O)N[C@@H](Cc1ccc(O)cc1)C(=O)N[C@@H](CCCCN)C(=O)O [p53 156-164] | – | high | high | HLA binding Affinity (Table 5) (HLA-A*0301; HLA type A3): high; HLA binding Affinity (Table 5) (HLA-A*1101; HLA type A11): high
5 | CC(C)C[C@H](NC(=O)[C@@H](NC(=O)[C@H](CC(N)=O)NC(=O)[C@H](CC(N)=O)NC(=O)[C@H](CCC(=O)O)NC(=O)[C@@H]1CCCN1C(=O)[C@H](CC(C)C)NC(=O)[C@H](CC(C)C)NC(=O)[C@@H](N)CCCCN)C(C)C)C(=O)O [p53 24-32] | – | – | – | pIC50 (HLA-A*0201; read-out: Peptide Binding Affinity): 4.82 to 5.30
